Experiment: Rehydration of anhydrous ipratropium bromide (sample weight over time)
Type: physicochemical
Conditions: 0 mins after heating 10.0 g monohydrate at 125° C. for 20 minutes
Description: The weight of the powder after heating was 9.563 g. The sample was weighed every 10 minutes for 90 minutes and then left over the weekend at 24° C. and 30% humidity.
The sample was then placed in a desiccator for 24 hours and weighed again.

Compound `CC(C)[N+]1(C)[C@@H]2CC[C@H]1CC(OC(=O)C(CO)c1ccccc1)C2.[Br-]` (stereo partly shown) [anhydrous ipratropium bromide] has a Sample weight of 9.563 g.

— patent US20220040086A1, “FORMULATION AND AEROSOL CANISTERS, INHALERS, AND THE LIKE CONTAINING THE FORMULATION” (KINDEVA DRUG DELIVERY L.P., priority 2018, published 2022)
